## Binding of CDR-mutated scFvs to a peptide of the spike HR2 region

From the AlphaSeq antibody data of Li et al. 2023 (doi:10.1038/s41467-023-39022-2), copy in the FLAb collection.

Target peptide (SARS-CoV-2 spike, HR2 region): PDVDLGDISGINAS

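The starting antibody came from a phage panning campaign against this peptide. Designed CDR sequences, proposed from the first random library and measured here. Several design methods are mixed in this list. In AlphaSeq, yeast of one mating type display the scFv and yeast of the other type display the target. The frequency of each diploid, read from paired DNA barcodes, reflects how well the two displayed proteins bind. Each replicate has its own calibration line, from reference interactions of the BCL2 family. The assay was run in six technical replicates.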

Each scFv is VH, a (GGGGS)3 linker, VL, as in the parent Ab-14, and differs from it in the CDRs of the heavy chain only.
VH: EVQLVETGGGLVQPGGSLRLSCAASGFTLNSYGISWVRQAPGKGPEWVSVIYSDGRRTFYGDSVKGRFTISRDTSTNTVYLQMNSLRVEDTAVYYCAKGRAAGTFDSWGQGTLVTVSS
VL: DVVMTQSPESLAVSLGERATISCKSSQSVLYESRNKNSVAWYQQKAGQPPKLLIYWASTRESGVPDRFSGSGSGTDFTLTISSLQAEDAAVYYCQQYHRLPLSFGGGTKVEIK

Variants are written as CDR1, CDR2 and CDR3 of the heavy chain (limits as in the source). Parent: GFTLNSYGIS, VIYSDGRRTFYGDSVK, GRAAGTFDS.
Scale: log10 of Kd in nM, estimated from mating counts; low values are strong binders.
The mean shown is taken over the replicates in which the pair was detected.
Where no diploid with the target was found in any replicate, the entry reads "nd": below detection, most likely a poor binder, though not proof of it.
The authors averaged sequences with at least three values out of six and counted those with two or fewer as poor binders.
Background: pairings of all heavy chain designs with three empty control strains gave a value in 1% of cases (median 2.08, 5th percentile 0.84). Values in that range, when seen in few replicates, are hard to tell from nonspecific mating.
Values of this round are not directly comparable with the first-round values of the same sequences.

CDR-H1	CDR-H2	CDR-H3	log10 Kd (nM), mean	detected
GFDLDEYGIS	VIYADGKRTAYADSVK	GETAGTFDV	0.12	6/6
MFSLNEYGIS	VIYSDGRRTWYGDSVK	GRAAGTFDS	nd	0/6
KFSLNSYGIS	VIYSDGRRTFYGDSVK	GNAAGTFDS	2.69	6/6
GFSLNEYGIS	VIYSDGRRTFYGDSVK	GRTAGTFDY	-0.12	6/6
GFDLEKYGIS	VIYADGIRKVYDQSVK	GQMAGTFTV	0.73	6/6
GFDLEEYGIS	VIYADGMRTAYADSVK	GNNAGTFDV	-0.36	6/6
GFDLDEYGIS	VIYADGQRTSYADSVK	GENAGTFDV	-1.19	6/6
GFTLNSYGIS	VIYSDGRRTFYSDQVK	GKAAGTFDT	0.80	6/6
GFDLDEYGIS	VIYADGRRTFYADSVK	GEAAGTFDE	0.18	6/6
GFDLNEYGIS	VIYADGMRTAYADDVK	GSNAGTFDM	-0.44	6/6
GFDLNEYGIS	VIYADGVRTAYSDDVK	GNVAGTFDI	-1.08	6/6
GFNIQEYGIS	VIYADGKRTAYAEPVK	GEMGGTIDT	nd	0/6
GFSLNSYGIS	VIYADGRRTFYGDQVK	GEAAGTFDS	-0.27	6/6
GFTLNDYGIS	VIYSDGRRTWYDDSVK	GRAAGTFDS	0.70	6/6
GFTLNSYGIS	VIYSDGRRTFYDWSVK	GQLAMTFDS	nd	0/6
GFELNEYGIS	VIYSDGRRTFYHDSVK	GRAAGTFDS	0.36	6/6
GFSLNDYGIS	VIYSDGRRTFYGDSVK	GRAAGTFAS	2.61	3/6
GFTLNSYGIS	VIYSDGRRTAYGDSVK	GRAVGTMDM	nd	0/6
GFVLNSYGIS	VIYADGRRTFYGDSVK	GRAAGTFDL	2.77	4/6
GFDLNEYGIS	VIYADGMRTAYSDSVK	GEEAGTFDV	-0.79	6/6
GDDLEDYGIS	VIYADGRRTAYQESVK	GLYAGYFDV	nd	0/6
GFTLNQYGIS	VIYSDGGRTFYSDSVK	GRARGFFDM	nd	0/6
GFDLNEYGIS	VIYADGKRTFYADSVK	GNVAGTFDL	-0.62	6/6
GKTLNEYGIS	VIYSDGRRTFYGDSVK	GRAAVTFDV	nd	0/6
GFDLNSYGIS	VIYSDGRRTFYGDSVK	GRAAGIFDS	3.36	1/6
GFTLNSYGIS	VIYSDGRRTFYGDSVK	GRAACTFSS	nd	0/6
GNTLNEYGIS	VIYSDGRRTFYGDSVK	GRCAGTFDS	1.99	2/6
GFDLDEYGIS	VIYADGKRTAYIDSVK	GNQAGTFDV	-0.51	6/6
GFELDEYGIS	VIYADGHRRAYADDVK	GMHSGSVQH	nd	0/6
GFDLNEYGIS	VIYADGRRTMYTDSVK	GANAGTFDQ	0.38	6/6
GFTLNSYGIS	VIYSDGVRTQYGDSVK	GQAAGTFDS	1.80	3/6
GFTLLSYGIS	VIYSDGRRTFYQDSVK	GRAKGTFDS	nd	0/6
GFQIDEYGIS	VIYADGMRTAYSDSFK	GVVTTMMVL	nd	0/6
GFDLVEYGIH	VIYADGIRTVVSNDVK	GNVAGTIDV	-0.38	6/6
GFDLNEYGVS	VIYADGVRSAYTSSVK	GVGNLDIML	nd	0/6
MFDLNSYGIS	VIYSDGRRTAYGDSVK	GRQAGTFDS	0.47	6/6
GFWLNDYGIS	VIYSDGRRTFYIDSVK	GNAAGTFDS	1.28	6/6
GFTLNSYGIS	VIYSDGRRTFYGDSVK	GRAAGTKDS	nd	0/6
GFTLNEYGIS	VIYSDGRRTFYSDSVK	GRAVGTFDS	nd	0/6

Again, the first 3 entries without any signal:

| CDR-H1 | CDR-H2 | CDR-H3 | log10 Kd (nM), mean | detected |
|---|---|---|---|---|
| MFSLNEYGIS | VIYSDGRRTWYGDSVK | GRAAGTFDS | nd | 0/6 |
| GFNIQEYGIS | VIYADGKRTAYAEPVK | GEMGGTIDT | nd | 0/6 |
| GFTLNSYGIS | VIYSDGRRTFYDWSVK | GQLAMTFDS | nd | 0/6 |